Binding of CDR-mutated scFvs to a peptide of the spike HR2 region

Binding partner: SARS-CoV-2 spike HR2 peptide, sequence PDVDLGDISGINAS.

Ab-14 is the parent antibody, in scFv form: VH, then a 15-residue (Gly4Ser)3 linker, then VL. The light chain is unchanged in all variants.
VH: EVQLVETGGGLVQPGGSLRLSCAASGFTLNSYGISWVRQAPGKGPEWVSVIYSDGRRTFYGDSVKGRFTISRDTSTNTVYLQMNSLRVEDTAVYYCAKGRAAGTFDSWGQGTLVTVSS
VL: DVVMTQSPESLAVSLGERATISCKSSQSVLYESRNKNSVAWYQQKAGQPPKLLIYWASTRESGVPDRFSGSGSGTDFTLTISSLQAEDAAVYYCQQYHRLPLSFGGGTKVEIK

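The parent was found by panning a naive human phage display library on the peptide. This is the validation round: designs drawn from the data on random variants, tested in the same kind of assay. Group labels follow the data file (Ctrl: baseline library sampled from a position-specific scoring matrix, with some repeated check sequences; Rand: our label for a block that the file lists under HC and that is probably the random mutants of the ten best first-round binders; En: ensemble of fine-tuned language models; GP: Gaussian process model; GPLM: also part of the Gaussian process libraries; HC: hill climbing; Gen: genetic algorithm; Gibbs: Gibbs sampling; a sequence that several methods proposed may carry one label only). Affinity was read by AlphaSeq, a pooled yeast mating assay with surface-displayed partners. The frequency of each diploid, read from paired DNA barcodes, reflects how well the two displayed proteins bind. A regression on co-assayed BCL2-family reference pairs converts the normalised counts of each replicate to an apparent Kd. Each pool was mated in six replicate cultures.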

Variants are written as CDR1, CDR2 and CDR3 of the heavy chain (limits as in the source). Parent: GFTLNSYGIS, VIYSDGRRTFYGDSVK, GRAAGTFDS. This list holds designs with at most six substitutions. Values are apparent Kd, the geometric mean of the replicates that gave a signal; lower means stronger binding. An entry "nd" has no value in the source: the pair was not observed among the diploids in any replicate. This suggests poor binding but is not conclusive. Empty control strains, which show no peptide, gave a signal in 1% of pairings with all heavy chain designs; the median was 120 nM and 95% of these signals were weaker than 7.0 nM. No background was subtracted. The control count says in how many pairings with the empty strains this scFv gave a signal. A sequence that the file lists under several names has all its replicates pooled. The authors' rule: three or more of the six replicates give a measured affinity, fewer mean a poor binder. A sequence measured in both rounds can read differently, since the two assays cover different ranges.

CDR-H1,CDR-H2,CDR-H3,group,apparent Kd,seen in,signal with controls
GFTLNSYGYS,VIYSDGRRTFYIDSVD,GRAAGTFDS,Ctrl,nd,0/6,0/18
GFSLNSYGIS,VIYSDGRRTFYADSVK,GEAAGTFDK,GPLM_Gen,9.5 nM,6/6,0/18
GFTLNSYGIS,VIYSDGWRTFYVDSVK,GRCAGTFDS,Ctrl,nd,0/6,0/18
GFTLESYGIS,VIYSDGRRTFYDDDVK,GRAAGTFDS,GP_Gibbs,4.4 nM,6/6,0/18
GFTLNEYGIS,VIYSDGRRTYYGDSVK,GRAAGTFDS,GPLM_HC,3.1 nM,6/6,1/18
GFKLNEYGIS,VIYSDGRRTFYGDSVK,GTAAGTFDS,Ctrl,1.0 nM,5/6,0/18
GFTLNSYGIS,VIYSDGRKTFYSDSVK,GRAAGTFDS,Ctrl,13 nM,1/6,0/18
GFTLNNYGIS,VIYADGRRTFYGDSVK,GQAAGTFDS,GPLM_Gen,780 pM,6/6,1/18
GFDLNSYGIS,VIYSDGRRTFYQDSVK,GKVAGTFDS,GP_Gen,1.2 nM,6/6,1/18
GFTLNEYGIS,VIYSDGRRTFYSDAVK,GRAAGTFDS,GPLM_HC,880 pM,6/6,0/18
GFTLNSYGIS,VIYSDGRRTFYGDSVK,GRVAGTFDA,Ctrl,2.5 nM,6/6,2/18
GFTLNSYGIS,VIYADGRRTFYGDSVK,GRAAATFDQ,GP_HC,nd,0/6,0/18
GFDLNSYGIS,VIYSDGRRTFYSDSVK,GQAGGTFDS,GP_HC,150 nM,4/6,0/18
GFELNSYGIS,VIYSDGRRTFYKDSVK,GQAAGTFDS,GPLM_Gibbs,5.4 nM,6/6,0/18
GFQLNEYGIS,VIYSDGRRTFYTDSVK,GRTAGTFDS,GP_HC,6.6 nM,6/6,0/18
GFTLNSYGIS,VIYSDGRRTFYGDSVK,GRAAGWFDS,Ctrl,23 nM,4/24,0/72
GFDLNSYGIS,VIYSDGRRTFYVDSVK,GQAAGTFDV,GP_Gen,12 nM,6/6,0/18
GFELNEYGIS,VIYSDGRRTFYGDSVK,GWTAGTFDS,GP_Gen,1.3 nM,6/6,0/18
GFTLNSYGIS,VIYSDGRRTFYADSVK,GRQAGTFDS,GPLM_Gen,6.3 nM,6/6,0/18
GFGLNEYGIS,VIYSDGRRTFYADSVK,GHAAGTFDS,GPLM_Gen,2.1 nM,6/6,0/18
GFGLNSYGIS,VIYSDGRRTFYSDSVK,GKTAGTFDS,GP_Gen,1.4 nM,6/6,0/18
GFDLNSYGIS,VIYSDGRRTFYADAVK,GRTAGTFDS,GPLM_Gibbs,3.7 nM,6/6,0/18
HFSLNDYGIS,VIYSDGRRTFYGDSVK,GRTAGTFDS,GPLM_Gen,2.8 nM,5/6,0/18
GFTLNQYGIS,VIYSDGRRTMYSDSVK,GRAAGTFDS,GP_HC,5.2 nM,6/6,0/18
GFDLNSYGIS,VIYSDGRRTFYVDDVK,GRTAGTFDS,GP_Gen,1.3 nM,6/6,1/18
GFDLNEYGIS,VIYADGRRTFYADSVK,GNAAGTFDT,En_HC,460 pM,6/6,0/18
GFTLNSYGIS,VIYSDGVRTFYADSVD,GRAAGTFDS,Ctrl,14 nM,6/6,1/18
GFSLNSYGIS,VIYSDGRRTFYGDSVK,GSVAGTFDS,GPLM_Gen,970 pM,6/6,0/18
GFELNSYGIS,VIYSDGRRTFYADMVK,GQTAGTFDS,GP_Gen,nd,0/6,0/18
GFTLNEYGIS,VIYRDGRRTFYTDSVK,GRFAGTFDS,Rand,nd,0/6,0/18
GFTLDSYGIS,VIYADGRRTFYGDSVK,GRQAGTFDS,GP_HC,760 pM,6/6,0/18
GFTLNSYGIS,VIYSDGRRTFYGDSVK,GQEAGTGDS,Ctrl,nd,0/6,0/18
GFDLNEYGIS,VIYSDGRRTFYGDSVK,GRAANTFDQ,Rand,nd,0/6,0/18
GFDLNSYGIS,VIYSDGKRTFYKDSVK,GRTAGTFDS,GP_Gen,2.1 nM,6/6,0/18
GFDLNSYGIS,VIYSDGRRTFYADPVK,GQAAGTFDS,GPLM_Gen,1.4 nM,6/6,1/18
GFNLNSYGIS,VIYSDGRRTFYSDSVK,GRSAGTFDS,GP_HC,37 nM,4/6,0/18
GFALNSYGIS,VIYSDGRRTFYMDSVK,GQLAGTFDS,GP_HC,3.1 nM,1/6,0/18
NFDLNSYGIS,VIYSDGRRTFYGDSVK,GKQAGTFDS,GP_HC,nd,0/6,0/18
GFTLESYGIS,VIYSDGRRTFYHDSVK,GRAAGTFDS,GPLM_Gen,1.4 nM,4/6,0/18
DFTLNSYGIS,VIYSDGRRTYYADSVK,GRVAGTFKS,Ctrl,530 nM,1/6,0/18
GFDLNEYGIS,VIYADGRRTFYTDSVK,GEEAGTFDS,En_HC,250 pM,6/6,0/18
GFTLNSYGVS,VIYSDGRRCFYGDSVK,GRAAGTFDS,Ctrl,nd,0/6,0/18
GFGLNSYGIS,VIYSDGRRTFYKDSVK,GQAAGTFDS,GP_Gen,66 nM,6/6,1/18
GFTLNQYGIS,VIYSDGRRTFYSDSGK,GRAEGFFDS,Rand,nd,0/6,0/18
GFTMNSYGIS,VIYSDGERTFYGDRVK,RRAAGTFDS,Ctrl,2.9 nM,1/6,0/18
GFTLDSYGIS,VIYSDGRRTFYGDSVK,GRAAGTFDQ,GPLM_HC,160 nM,3/6,1/18
GFSLNEYGIS,VIYSDGRRTFYGESVK,GRTAGTFDS,GP_Gen,740 pM,6/6,0/18
GFGLNEYGIS,VIYSDGRRTFYHDSVK,GRTAGTFDS,GPLM_HC,900 pM,6/6,1/18
GFVLNNYGIS,VIYSDGRRTFYGDSVK,GQTAGTFDA,GP_Gibbs,15 nM,6/6,2/18
GFRLNSYGIS,VIYSDGRRTFYADSVK,GQLAGTFDS,GP_HC,nd,0/6,0/18
GFTLNDYGIS,VIYSDGKRTFYGDSVK,GRAHGTFDS,Ctrl,nd,0/6,0/18
GFQLNSYGIS,VIYSDGRRTFYGDSVR,GAAAGTFDS,Ctrl,7.5 nM,1/6,0/18
GFFLNEYGIS,VIYSDGRRTFYGDSVK,GRTAGTFDS,GPLM_Gen,7.9 nM,6/6,3/18
GFTNNSYGIS,VIYSDGRRTFYGDSVK,GRAAGTFHS,Ctrl,nd,0/6,1/18
GFHLNSYGIS,VIYSDGRRTFYKDSVK,GKTAGTFDS,GP_Gibbs,13 nM,2/6,0/18
GFTLNSYGIS,VIYSDGRRTFYTDSVK,GRGAGKFDS,Ctrl,3.1 nM,1/6,0/18
GFTLNSYGIS,VIYSDGRRTFYGDSVK,GRRVGTFDS,Ctrl,nd,0/6,1/18
GFTLNSYGIS,VIYSDGRRTFYGHSVK,GRAAGTFDS,Ctrl,nd,0/6,0/18
GFSLNSYGIS,VIYSDGRRTFYGDRVK,GQAAGTFDS,GPLM_Gen,nd,0/6,0/18
GFSLNEYGIS,VIYSDGHRTFYGDSVK,GRTAGTFDS,GPLM_Gen,380 pM,6/6,0/18

Extract of 7 entries:

CDR-H1	CDR-H2	CDR-H3	group	apparent Kd	seen in	signal with controls
HFSLNDYGIS	VIYSDGRRTFYGDSVK	GRTAGTFDS	GPLM_Gen	2.8 nM	5/6	0/18
GFTLNSYGVS	VIYSDGRRCFYGDSVK	GRAAGTFDS	Ctrl	nd	0/6	0/18
GFDLNEYGIS	VIYSDGRRTFYGDSVK	GRAANTFDQ	Rand	nd	0/6	0/18
GFDLNSYGIS	VIYSDGRRTFYADAVK	GRTAGTFDS	GPLM_Gibbs	3.7 nM	6/6	0/18
GFTLESYGIS	VIYSDGRRTFYDDDVK	GRAAGTFDS	GP_Gibbs	4.4 nM	6/6	0/18
GFTLNEYGIS	VIYSDGRRTFYSDAVK	GRAAGTFDS	GPLM_HC	880 pM	6/6	0/18
GFDLNSYGIS	VIYSDGRRTFYVDDVK	GRTAGTFDS	GP_Gen	1.3 nM	6/6	1/18

Source: Li et al. 2023 (doi:10.1038/s41467-023-39022-2), MIT Lincoln Laboratory and A-Alpha Bio; data file from the FLAb repository.